Experimental data reported in ChEMBL document CHEMBL3525963, “Tissue distribution and elimination of [14C]apixaban in rats” (Drug Metab Dispos, 2011).

Assays:
Assay type in all cases: ADME, organism-based
Design in all cases: dose 5 mg/kg, dosed compound name [14C]-apixaban, route oral
Details in all cases: in vivo
Blood = assay: Biodistribution in pregnant Sprague-Dawley rat blood at 5 mg/kg, po administered as single dose measured after 1 hr
Rattus norvegicus = assay: Biodistribution in pregnant Sprague-Dawley rat amnion at 5 mg/kg, po administered as single dose measured after 0.5 hrs
Adrenal gland = assay: Biodistribution in pregnant Sprague-Dawley rat adrenal gland at 5 mg/kg, po administered as single dose measured after 0.5 hrs

Radiolabel recovery (Blood): 1.44 ugequiv/g
Radiolabel recovery (Rattus norvegicus): 1.45 ugequiv/g
Radiolabel recovery (Adrenal gland): 1.49 ugequiv/g
SMILES: COc1ccc(-n2nc(C(N)=O)c3c2C(=O)N(c2ccc(N4CCCC[14C]4=O)cc2)CC3)cc1
